Among the data in patent US20240100134A1 are Plg converted to Plm after 120 min (12% SDS-PAGE, Coomassie) values, retold here.

Chains of the proteins cited; added tags and fusions are not shown. A line that says so, or that is headed by a name, gives the form on record, which may keep a tag or linker.
recombinant plasminogen-linker-Fc fusion (human plasminogen, QA linker GQAGQAS, Fc) (human), one chain, as listed by the source limits assumed: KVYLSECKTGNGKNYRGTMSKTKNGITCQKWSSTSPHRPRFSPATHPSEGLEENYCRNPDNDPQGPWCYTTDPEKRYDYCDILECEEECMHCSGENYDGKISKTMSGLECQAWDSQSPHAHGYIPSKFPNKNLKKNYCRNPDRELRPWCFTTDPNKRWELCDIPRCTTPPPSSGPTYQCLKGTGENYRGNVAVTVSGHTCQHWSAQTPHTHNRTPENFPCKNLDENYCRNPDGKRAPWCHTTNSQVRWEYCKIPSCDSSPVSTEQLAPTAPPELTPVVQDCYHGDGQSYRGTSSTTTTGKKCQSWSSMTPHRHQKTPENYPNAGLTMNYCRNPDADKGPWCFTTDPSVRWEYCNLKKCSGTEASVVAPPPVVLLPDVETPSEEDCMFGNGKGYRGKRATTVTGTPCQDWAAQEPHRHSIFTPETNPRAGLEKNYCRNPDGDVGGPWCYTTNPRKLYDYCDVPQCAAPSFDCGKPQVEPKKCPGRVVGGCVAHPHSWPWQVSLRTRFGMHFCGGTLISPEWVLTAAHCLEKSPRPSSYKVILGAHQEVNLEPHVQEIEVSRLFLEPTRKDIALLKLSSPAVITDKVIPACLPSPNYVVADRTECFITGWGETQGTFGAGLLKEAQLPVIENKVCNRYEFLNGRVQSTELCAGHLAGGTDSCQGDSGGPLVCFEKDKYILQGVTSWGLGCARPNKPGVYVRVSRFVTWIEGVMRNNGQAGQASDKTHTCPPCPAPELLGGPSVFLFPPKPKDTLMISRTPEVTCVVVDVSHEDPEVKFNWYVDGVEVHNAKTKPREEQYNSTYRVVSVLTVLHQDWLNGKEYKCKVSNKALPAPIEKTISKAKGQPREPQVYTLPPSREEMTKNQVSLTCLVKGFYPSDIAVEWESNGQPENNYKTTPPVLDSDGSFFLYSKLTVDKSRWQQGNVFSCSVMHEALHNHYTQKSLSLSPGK

This assay concerns the target recombinant plasminogen-linker-Fc fusion (human plasminogen, QA linker GQAGQAS, Fc) (human). The experiment in a line: cell-based or functional assay.

Regarding “urokinase-type plasminogen activator (from UniProt P00749 21-431) (enzyme)”, the Plg converted to Plm after 120 min (12% SDS-PAGE, Coomassie) is 80%.
